# Assay results from patent US7745147 (VIRANATIVE, dated 2010).
# Biological target: T1, human interferon alpha 8 (human, UniProt P32881 24-189)
# T1 construct: One entry serves both the natural leukocyte protein and the bought recombinant protein; also called α8; IFN-α8
# Assay: immunoaffinity column loaded with crude leukocyte interferon alpha; RP-HPLC of eluate
binder,measurement,value
"Monoclonal antibody 3-A3-2 (antibody, mouse IgG1, V domains shown, Murine IgG1/kappa from hybridoma 3-A3-2 (ECACC 05030201); also called monoclonal 3-A3-2; 3A32 Ab) VH: QVQLQESGTVLARPGASVKMSCKASGYSFTTYWMHWVKQRPGQGLEWIGVIYPGNGDTTYNQKFKDKAKLTAVTSANTAYMELSSLTNEDSAVYFCTRNYKYDYYTMDYWGQGTTVTVSS VL: DIVLTQSPASLAVSLGQRATISCRASKSVSTSGHSYMHWYQQKPGQTPKLLIYLASNLESGVPARFSGSGSGTDFTLNIHPVEEEDAATYYCQHSGELPFTFGSGTKLEIK",binding result,binds
